Values of other authors as cited in patent publication EP1190712A1, “Oral once daily tramadol beads composition” (SMB Technology, priority 2000, dated 2002).

Conditions: human, in vivo

COc1cccc(C2(O)CCCCC2CN(C)C)c1 (stereo not shown) [Tramadol]
elimination half-life: 4 to 6 h
